Laboratory results as given in patent US11510886B2, “Metformin amino acid compounds and methods of using the same” (Laboratorios Silancs S.A. DE C.V., priority 2016, dated 2022).

Columns and labels:
[1] = terms of European Pharmacopeia 7.0 section 5.11
[2] = STZ-diabetic male rats, mean ± SD
[3] = diabetic rats, 14 days daily oral
[4] = before first TI/RI administration

Compound | Physical form (hygroscopicity) [1] | Physical form (hygroscopicity) ([1]; listed as 18. LYSINE) | Absolute body weight, Day −2 (distribution of groups) [2, 4] [g] | Absolute body weight, Day −3 (before STZ administration) ([2]; baseline before STZ and before first TI/RI administration) [g] | Absolute body weight, Day −1 [2, 4] [g] | mortality [3]
metformin lysinate | deliquescent compound | Deliquescent |  |  |  | 
CN(C)C(=N)NC(=N)N.C[C@H](N)C(=O)O [Metformin alaninate, metformin alaninate] |  |  | 219.20 ± 4.18 |  |  | 
diphenformin aspartate |  |  | 212.77 ± 8.22 | 219.17 ± 19.71 | 207.03 ± 1.61 | sacrificed for humane reasons

Read-outs that look alike come from different tables or passages of the source.
